The text below walks through data of patent publication US12447153B2, “HER2 mutation inhibitors” (Array BioPharma Inc., priority 2021, dated 2025).

Chains of the proteins cited; added tags and fusions are not shown. A line that says so, or that is headed by a name, gives the form on record, which may keep a tag or linker.
UniProt P04626, with tags, fused parts or gaps INS775YVMA/P1170A limits assumed: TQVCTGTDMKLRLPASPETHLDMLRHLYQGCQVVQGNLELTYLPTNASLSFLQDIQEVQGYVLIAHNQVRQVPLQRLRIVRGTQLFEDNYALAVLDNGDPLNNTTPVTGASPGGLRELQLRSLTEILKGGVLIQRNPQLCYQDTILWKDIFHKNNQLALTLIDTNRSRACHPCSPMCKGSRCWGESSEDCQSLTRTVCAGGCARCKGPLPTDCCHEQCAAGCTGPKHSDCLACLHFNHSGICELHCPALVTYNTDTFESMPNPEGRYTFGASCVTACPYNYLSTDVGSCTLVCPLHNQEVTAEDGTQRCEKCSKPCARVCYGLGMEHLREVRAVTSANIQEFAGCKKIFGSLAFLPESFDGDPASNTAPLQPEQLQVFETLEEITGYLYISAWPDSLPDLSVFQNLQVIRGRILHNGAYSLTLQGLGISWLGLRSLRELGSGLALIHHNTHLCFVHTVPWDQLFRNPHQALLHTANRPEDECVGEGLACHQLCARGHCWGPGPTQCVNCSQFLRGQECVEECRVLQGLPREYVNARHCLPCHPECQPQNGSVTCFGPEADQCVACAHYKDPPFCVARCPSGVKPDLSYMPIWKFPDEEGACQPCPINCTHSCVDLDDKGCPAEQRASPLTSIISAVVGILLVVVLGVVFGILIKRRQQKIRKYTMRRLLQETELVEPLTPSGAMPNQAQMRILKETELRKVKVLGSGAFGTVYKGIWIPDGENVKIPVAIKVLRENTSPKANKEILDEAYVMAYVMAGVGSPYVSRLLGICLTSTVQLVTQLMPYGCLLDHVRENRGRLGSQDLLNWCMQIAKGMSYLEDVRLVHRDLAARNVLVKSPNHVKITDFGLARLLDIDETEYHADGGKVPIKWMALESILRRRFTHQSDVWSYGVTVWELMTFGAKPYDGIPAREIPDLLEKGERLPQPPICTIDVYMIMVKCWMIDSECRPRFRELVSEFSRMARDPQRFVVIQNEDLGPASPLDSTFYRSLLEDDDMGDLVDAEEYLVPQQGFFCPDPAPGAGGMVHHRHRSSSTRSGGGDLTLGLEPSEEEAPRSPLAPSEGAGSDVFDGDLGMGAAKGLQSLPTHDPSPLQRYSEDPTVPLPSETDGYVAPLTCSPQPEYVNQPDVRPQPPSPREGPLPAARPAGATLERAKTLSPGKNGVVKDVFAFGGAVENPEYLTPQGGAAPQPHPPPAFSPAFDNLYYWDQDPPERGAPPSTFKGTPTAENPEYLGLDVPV

For this experiment, the target named is ErbB2 insYVMA (HER2-YVMA) (Homo sapiens, UniProt P04626, INS775YVMA/P1170A).

Usually IC50 stands for the midpoint of a concentration-inhibition curve. A high value points to weaker potency. The compound `C=CC(=O)N1[C@@H]2CC[C@H]1C[C@@H](c1ccc3ncnc(Nc4ccc(Oc5cnc6c(c5)ncn6C)c(C)c4F)c3n1)C2` [Example 227, 1-((1R,3r,5S)-3-(4-((2-fluoro-3-methyl-4-((3-methyl-3H-imidazo[4,5-b]pyridin-6-yl)oxy)phenyl)amino)pyrido[3,2-d]pyrimidin-6-yl)-8-azabicyclo[3.2.1]octan-8-yl)prop-2-en-1-one] registered an IC50 of 25.4 nM.
